The values that follow are results of earlier work, collected in US9399044B2, “Antimicrobial cationic polyamines” (International Business Machines Corporation, priority 2014, dated 2016).

This data set deals with mouse. Particulars: commercially available compounds, source NIH.

On to `COc1cccc2c1C(=O)c1c(O)c3c(c(O)c1C2=O)C[C@@](O)(C(=O)CO)C[C@@H]3O[C@H]1C[C@H](N)[C@H](O)[C@H](C)O1` [Doxorubicin], for which the “Mouse Intravenous LD50” value is given as 10 mg/kg.
